In patent US11104735B2, “Inhibition of cytokine-induced SH2 protein in NK cells” (The Walter and Eliza Hall Institute of Medical Research, priority 2015, dated 2021):
pIC50: −log10 of the molar value. “Also recorded” adds a separate entry of the source.

Sequences of proteins named here, by UniProt entry; tags and fusion partners are left off. Residues count along the entry.
UniProt P23458, 875-1153 limits assumed: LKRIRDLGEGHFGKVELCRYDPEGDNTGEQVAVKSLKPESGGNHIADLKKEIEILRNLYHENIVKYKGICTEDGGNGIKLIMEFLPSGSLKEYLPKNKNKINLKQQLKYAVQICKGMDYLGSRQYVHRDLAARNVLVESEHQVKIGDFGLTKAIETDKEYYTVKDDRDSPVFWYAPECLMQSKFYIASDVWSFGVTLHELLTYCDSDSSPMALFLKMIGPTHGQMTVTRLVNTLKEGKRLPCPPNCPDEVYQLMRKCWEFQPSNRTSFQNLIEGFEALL

How the values were obtained:
[1] = tested on: RMA-S cells; assay: RMA-S i.p. lymphoma model; format: in vivo, mouse; details: Cish−/− vs WT mice, 100,000 IU i.p. days 0-4
Experimental: (A) Groups of 5-6 B6.WT (Cish^+/+) or B6.Cish^−/− mice were injected i.v. with 2×10^5 B16F10 melanoma cells and treated with either control Ig (cIg) (250 μg i.p. on days 0, 3 and 6), anti-PD-1 (250 μg i.p. on days 0, 3 and 6), mouse IFN-αβ (25 μg i.p. on days 0, 1, 2 and 3) or recombinant IL-2 (10,000 IU i.p. on days 0, 1, 2 and 3). (B) Groups of 5-11 B6.WT (Cish^+/+) or B6.Cish^−/− mice were injected i.v. with 7.5×10^5 B16F10 melanoma cells and treated with either cIg (250 μg i.p. on days 0, 3 and 6), anti-PD1/anti-CTLA-4 combination (250 μg i.p. each on days 0, 3 and 6), or recombinant IL-2 (10,000 IU i.p. on days 0, 1, 2, 3 and 4). (C) Groups of 7-10 B6.WT (Cish^+/+) and B6.Cish^−/− mice were injected i.p. with 1×10^5 parental RMA-S cells and treated with either PBS or recombinant IL-2 (100,000 IU i.p. on days 0, 1, 2, 3 and 4). Mice were monitored for tumor development and were euthanized at the point of abdominal swelling and discomfort. Improved survival between groups was assessed by the Log-rank Mantel-Cox test. (D) Groups of 5-15 B6.WT (Cish^+/+) or B6.Cish^−/− mice were injected i.v. with 5×10^5 RM-1 prostate carcinoma cells and treated with either cIg, anti-CD96, anti-PD-1, anti-CTLA-4 or anti-PD1/anti-CTLA-4 combination (250 μg i.p. each on days 0 and 3). […]

[2] = tested on: B16F10 melanoma cells; assay: B16F10 experimental lung metastasis; format: in vivo, mouse; details: vs cIg
Experimental: FIG. 4—Loss of Cish controls experimental lung tumour metastases. Cish^+/+ and Cish^−/− mice were injected i.v. with (a) 3×10^5 B16F10 melanoma cells or (b) 2×10^5 B16F10 melanoma and treated on days −1, 0 and 6 relative to tumour inoculation with either control Ig (cIg), anti-CD8 (αCD8; CD8 T cell depletion), anti-asialoGM1 (αasGM1; NK cell depletion) or anti-IFNγ (αIFNγ; neutralising), antibodies. Mice were sacrificed day 14 post-tumour injection. (c) NK cell-deficient (Ncr1^Mcl1Δ/Δ) mice were injected i.v. with 3×10^6 in vitro expanded Cish^+/+ or Cish^−/− NK cells or PBS, 8 h prior to injection with 1×10^5 B16F10 melanoma cells. Mice received a second injection of 1.5×10^6 in vitro expanded Cish^+/+ or Cish^−/− NK cells or PBS, 24 h post-tumour inoculation and were sacrificed at day 18 post-tumour injection. (a-c) The metastatic burden (mets) was quantified in the lungs by counting colonies on the lung surface. (d) Cish^+/+ Cish^−/− and Ncr1^Mcl1Δ/Δ (NK-null) mice were injected i.v. with 5×10^5 E0771 mCherry^+ breast cancer cells and lung metastasis analysed by IVIS (fluorescence emission; left panels) or H&E stained histological sections (right panels). (e) 1×10^5 E0771 cells were implanted into the mammary fat pad of Cish^+/+ and Cish^−/− mice and tumour size measured over time. (f) Orthotopic E0771 tumours generated as in (e) were surgically removed at 400-600 mm^3 and spontaneous lung metastases measured in the lungs 14 days later by IVIS and RT-PCR for mCherry mRNA expression. (g) Cish^+/+ and Cish^−/− mice were injected i.v. with B16F10 lung carcinoma (7.5×10^5 cells). On days 0, 3 and 6 relative to tumour inoculation, mice received either control Ig or combination anti-PD-1/anti-CTLA-4 antibodies. The metastatic burden was quantified after 13 days by counting colonies on the lung surface. Mean±S.E.M. and all data (n) are shown. […] Significant differences between groups were determined by a (a, c, g) Mann-Whitney U test (b) Kruskal Wallis with post Dunn's test or (e) Mantel-Cox test. […]

[3] = biological target: JAK1 (Homo sapiens, UniProt P23458); assay: In vitro kinase inhibition assay, JAK1 kinase domain (JH1) with STAT5b substrate peptide; format: biochemical; details: JAK1 JH1, in vitro kinase reaction; unit inferred
Experimental: Protein kinase assays, including high throughput kinase assays are known in the art as described in, e.g., in Babon et al. (2013) and Von Ahsen et al. (2005). In one exemplary embodiment 130 μM STAT5b peptide (SEQ ID NO:18 RRAKAADGYVKPQIKQVV) is incubated with 5 nM human JAK1 (see SEQ ID NO:11 for corresponding amino acid sequence) at 25° C. for 30-60 min in 20 mM Tris pH 8.0, 100 mM NaCl, 5 mM 2-mercaptoethanol, 0.2 mg ml^−1 bovine serum albumin, 2 mM MgCl2, 100 μM ATP and 1 μCi γ-[^32P]ATP. Recombinant trimeric complex CIS-SH2-Elongin B-Elongin C (see SEQ ID NOs:7, 14, and 15 for the corresponding amino acid sequences) is present at concentrations ranging from 0-30 μM. After incubation, the reaction is spotted onto P81 phosphocellulose paper and quenched in 5% H3PO4. The paper is then washed (4×200 ml, 15 min) with 5% H3PO4 and exposed to a phosphorimager plate. Quantitation is performed using phosphorimager software and IC50 curves are then calculated based on integrated pixel counts.
Kinase inhibition assays were performed essentially as described (Babon et al., 2012). […] Quantitation was performed using Fuji software and IC50 curves calculated using Graphpad Prism.

| pIC50 [3] | Substance | Survival in RMA-S lymphoma model [1] | B16F10 lung metastases ([2]; Cish+/+ (WT) mice, high dose 7.5×10^5 cells i.v.) | B16F10 lung metastases ([2]; Cish−/− mice, 2×10^5 cells i.v.) | B16F10 lung metastases ([2]; Cish−/− mice, high dose 7.5×10^5 cells i.v.) |
| --- | --- | --- | --- | --- | --- |
| – | IL-2: recombinant IL-2 cytokine | improved effect | ineffective | appeared to further reduce metastasis | more effective than cIg; also recorded: effective |
| ~4.49 | full-length CIS: human full-length CIS protein expressed with elongins B and C as trimeric complex | – | – | – | – |
